By UniProt entry, the sequences of proteins in these tests, tags left out.
UniProt P00533, whole entry: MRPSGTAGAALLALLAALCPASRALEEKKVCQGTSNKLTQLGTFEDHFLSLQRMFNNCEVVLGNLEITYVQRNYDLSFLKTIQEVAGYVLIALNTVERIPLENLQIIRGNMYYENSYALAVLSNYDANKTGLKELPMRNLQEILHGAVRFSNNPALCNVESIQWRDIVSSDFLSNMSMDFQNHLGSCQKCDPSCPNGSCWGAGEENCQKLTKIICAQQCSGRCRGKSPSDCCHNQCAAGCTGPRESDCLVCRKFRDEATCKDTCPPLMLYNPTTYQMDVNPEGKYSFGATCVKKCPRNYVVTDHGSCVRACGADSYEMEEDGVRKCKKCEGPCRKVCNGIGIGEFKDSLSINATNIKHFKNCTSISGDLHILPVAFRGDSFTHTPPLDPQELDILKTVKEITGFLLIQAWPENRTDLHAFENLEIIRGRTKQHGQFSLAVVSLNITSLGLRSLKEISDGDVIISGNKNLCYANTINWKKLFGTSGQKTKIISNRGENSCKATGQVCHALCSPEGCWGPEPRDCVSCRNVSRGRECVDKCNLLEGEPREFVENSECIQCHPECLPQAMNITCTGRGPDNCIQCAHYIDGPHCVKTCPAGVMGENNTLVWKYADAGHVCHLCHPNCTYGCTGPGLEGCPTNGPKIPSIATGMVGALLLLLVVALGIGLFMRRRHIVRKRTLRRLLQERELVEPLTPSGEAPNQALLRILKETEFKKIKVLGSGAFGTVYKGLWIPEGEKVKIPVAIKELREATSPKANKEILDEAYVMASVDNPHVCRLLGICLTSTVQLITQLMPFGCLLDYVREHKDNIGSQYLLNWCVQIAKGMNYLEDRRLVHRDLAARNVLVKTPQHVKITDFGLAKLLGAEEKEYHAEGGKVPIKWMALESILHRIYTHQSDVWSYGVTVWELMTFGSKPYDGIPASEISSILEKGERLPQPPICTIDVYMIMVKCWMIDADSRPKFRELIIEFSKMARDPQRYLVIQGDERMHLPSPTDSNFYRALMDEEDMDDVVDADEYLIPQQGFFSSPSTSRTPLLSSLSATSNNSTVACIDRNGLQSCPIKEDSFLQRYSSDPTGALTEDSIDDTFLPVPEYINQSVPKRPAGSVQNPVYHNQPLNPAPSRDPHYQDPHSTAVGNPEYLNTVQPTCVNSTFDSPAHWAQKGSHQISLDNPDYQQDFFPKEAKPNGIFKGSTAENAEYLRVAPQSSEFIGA

According to BindingDB's records for doi:10.1016/s0960-894x(02)01047-8 (Glaxosmithkline, 2003):

Biological target: Epidermal growth factor receptor (Homo sapiens, UniProt P00533)
Assay: Kinase Inhibition Assay
Procedure: Enzymatic reactions were initiated by adding kinase to the reaction mixture containing ATP, [gamma-33P] ATP, peptide substrate and test inhibitor compound. The reactions were terminated after 10 min at 23 °C. The reaction mix was then transferred to filter plates for scintillation counting. Each inhibitor compound was added to the reaction to produce an 11-point dose-response curve (0.0001 to 10 uM).

## CS(=O)(=O)CCNCCCCOc1ccc2ncnc(Nc3ccc4c(cnn4Cc4cccc(F)c4)c3)c2c1 [N-{1-[(3-fluorophenyl)methyl]-1H-indazol-5-yl}-6-{4-[(2-methanesulfonylethyl)amino]butoxy}quinazolin-4-amine]
  pIC50: 7.62

pIC50: −log10 of the molar value.
